Results: publication PMC5767129 (European journal of pharmacology, 2017)

Amino acid sequences for entries named in this document (tags omitted). A change or cut given only in a name is not applied to a line headed by its entry.
UniProt Q99572: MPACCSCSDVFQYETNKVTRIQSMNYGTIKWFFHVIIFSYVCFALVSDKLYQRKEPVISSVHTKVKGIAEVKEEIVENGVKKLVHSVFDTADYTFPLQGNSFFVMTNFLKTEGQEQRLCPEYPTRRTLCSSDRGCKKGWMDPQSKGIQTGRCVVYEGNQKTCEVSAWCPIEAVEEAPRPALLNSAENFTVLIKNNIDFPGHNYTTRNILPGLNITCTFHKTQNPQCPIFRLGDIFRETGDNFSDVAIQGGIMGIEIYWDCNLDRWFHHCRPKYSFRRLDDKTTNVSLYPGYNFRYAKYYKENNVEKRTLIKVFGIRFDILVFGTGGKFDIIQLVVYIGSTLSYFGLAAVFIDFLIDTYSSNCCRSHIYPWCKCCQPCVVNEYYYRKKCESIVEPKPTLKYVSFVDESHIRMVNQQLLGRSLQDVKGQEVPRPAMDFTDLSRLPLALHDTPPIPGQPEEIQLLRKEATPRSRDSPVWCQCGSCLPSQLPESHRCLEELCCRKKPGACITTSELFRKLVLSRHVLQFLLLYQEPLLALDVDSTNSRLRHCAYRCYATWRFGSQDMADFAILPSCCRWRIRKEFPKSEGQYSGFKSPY

Columns and labels:
human P2X7 receptor [1] = molecular target: T1, human P2X7 receptor (Homo sapiens, UniProt Q99572); assay: Ethidium bromide uptake fluorescence assay; format: cell-based
human P2X7 receptor [2] = molecular target: T1, human P2X7 receptor; assay: Radioligand competition binding assay using [^3H]A804598
human P2X7 receptor [3] = molecular target: T1, human P2X7 receptor; assay: Radioligand competition binding assay using [^123I]TZ6019

In the case of `O=C(NCc1cccc(C(F)(F)F)c1Cl)[C@@H]1CCC(=O)N1CCF` [TZ5038, (S)-N-(2-chloro-3-(trifluoromethyl)benzyl)-1-(2-fluoroethyl)-5-oxopyrrolidine-2-carboxamide], the IC50 (human P2X7 receptor [1]) is reported as 9.93 ± 2.1 nM, the IC50 (human P2X7 receptor [2]) is reported as 11.9 ± 2.2 nM and the IC50 (human P2X7 receptor [3]) is reported as 8.1 ± 1.3 nM.
